In EP4834909A1, “CRYSTAL FORM OF COMPOUND CONTAINING TRICYCLIC HETEROARYL, AND PREPARATION METHOD THEREFOR AND USE THEREOF” (dated 2026):

What was measured:
[1] = Hygroscopicity test of crystal form; settings: 25°C ± 1°C for 24 h; for average weight gain: desiccator with saturated ammonium chloride or ammonium sulfate solution
Method: Appropriate amounts of the amorphous sample from the Preparative Example, the crystal form I sample from Example 3, and the crystal form II sample from Example 5 were weighed. In accordance with the Guidelines for the Testing of Hygroscopicity of Drugs, the samples were placed in a suitable constant-temperature desiccator (with a saturated solution of ammonium chloride or ammonium sulfate at the bottom) at 25°C ± 1°C for 24 h to perform the hygroscopicity test.

[2] = Stability test of crystal form (high temperature, high humidity, light exposure); settings: for stability (summary in words): high temperature (60°C), high humidity (25°C/75% RH), light exposure (4500 ± 500 lux), 5 and 10 days
Method: Appropriate amounts of the amorphous sample from the Preparative Example, the crystal form I sample from Example 3, and the crystal form II sample from Example 5 were weighed and placed under conditions of high temperature (60°C), high humidity (25°C/75% RH) and light exposure (4500 ± 500 lux) for 5 and 10 days, respectively. The resulting data were compared with those at day 0. Table 4: Stability test results for amorphous form, crystal form I, and crystal form II

[3] = Solubility test of crystal form in water; settings: class per Pharmacopoeia of the People's Republic of China (2020 Edition, Volume II)
Source text: Appropriate amounts of the amorphous sample from the Preparative Example, the crystal form I sample from Example 3, and the crystal form II sample from Example 5 were weighed and subjected to solubility tests in water, respectively.

[4] = Milling stability of crystal form I (air jet milling, XRPD); settings: jet mill, feed gas pressure 6-7 bar, pulverizing gas pressure 6-7 bar
Source text: An appropriate amount of the crystal form I sample from Example 3 was pulverized using a laboratory-scale jet mill (feed gas pressure: 6-7 bar, pulverizing gas pressure: 6-7 bar). The pulverized sample was subjected to XRPD detection, and no change in crystal form was observed. Table 5: X-ray powder diffraction peaks of crystal form I after air jet milling

[5] = Micromeritic property testing; settings: crystal form I sample from Example 3
Method: The micromeritic properties of the crystal form I sample from Example 3 were tested.

[6] = High humidity (25°C/75% RH), 5 days
[7] = High humidity (25°C/75% RH), 10 days
[8] = High temperature (60°C), 5 days
[9] = High temperature (60°C), 10 days
[10] = Light exposure (4500 ± 500 lux), 5 days
[11] = Light exposure (4500 ± 500 lux), 10 days

Appearance [2, 6] | Crystal form [2, 6] | Maximum single impurity (%) [2, 6] | Total impurity (%) [2, 6] | Appearance [2, 7] | Crystal form [2, 7] | Maximum single impurity (%) [2, 7] | Total impurity (%) [2, 7] | Appearance [2, 8] | Crystal form [2, 8] | Maximum single impurity (%) [2, 8] | Total impurity (%) [2, 8] | Appearance [2, 9] | Crystal form [2, 9] | Maximum single impurity (%) [2, 9] | Total impurity (%) [2, 9] | Appearance [2, 10] | Crystal form [2, 10] | Maximum single impurity (%) [2, 10] | Total impurity (%) [2, 10] | SMILES | further results
Off-white solid | Unchanged | 0.04% | 0.06% | Off-white solid | Unchanged | 0.04% | 0.05% | Off-white solid | Transformed | 0.04% | 0.06% | Off-white solid | Transformed | 0.03% | 0.04% | Off-white solid | Transformed | 0.04% | 0.05% | NC(=O)c1cnc(Nc2ccc3c(c2)OC[C@H]2CN(S(=O)(=O)C4CC4)CCN32)nc1NC1CC1 [Crystal form II] | hygroscopicity (classification) [1]: significant hygroscopicity; average weight gain [1]: 47.9%; Appearance [2, 11]: Off-white solid; Crystal form [2, 11]: Transformed; Maximum single impurity (%) [2, 11]: 0.04%; Total impurity (%) [2, 11]: 0.05%; Appearance ([2]; day 0): Off-white solid; Crystal form ([2]; day 0): Unchanged; Maximum single impurity (%) ([2]; day 0): 0.03%; Total impurity (%) ([2]; day 0): 0.04%; stability (summary in words) [2]: the crystal form underwent a transformation under conditions of high-temperature and light exposure
Off-white solid | Unchanged | 0.02% | 0.04% | Off-white solid | Unchanged | 0.02% | 0.05% | Off-white solid | Unchanged | 0.02% | 0.05% | Off-white solid | Unchanged | 0.02% | 0.05% | Off-white solid | Unchanged | 0.02% | 0.05% | NC(=O)c1cnc(Nc2ccc3c(c2)OC[C@H]2CN(S(=O)(=O)C4CC4)CCN32)nc1NC1CC1 [Crystal form I] | solubility in water (solubility class) [3]: fell within the same solubility class; hygroscopicity (classification) [1]: slight hygroscopicity; average weight gain [1]: 0.8%; Appearance [2, 11]: Off-white solid; Crystal form [2, 11]: Unchanged; Maximum single impurity (%) [2, 11]: 0.02%; Total impurity (%) [2, 11]: 0.06%; Appearance ([2]; day 0): Off-white solid; Maximum single impurity (%) ([2]; day 0): 0.01%; Total impurity (%) ([2]; day 0): 0.02%; stability (summary in words) [2]: essentially no changes in appearance, related substances, or crystal form; crystal form after air jet milling (XRPD) [4]: no change in crystal form was observed; Angle of repose [5]: 38°; Bulk density [5]: 0.272 g/mL; Hausner ratio [5]: 1.30; Tap density [5]: 0.354 g/mL
Pale yellow solid | Unchanged | 1.51% | 7.03% | Pale yellow solid | Unchanged | 1.46% | 7.85% | Pale yellow solid | Unchanged | 1.54% | 6.92% | Pale yellow solid | Unchanged | 3.17% | 9.71% | Pale yellow solid | Unchanged | 1.45% | 7.16% | NC(=O)c1cnc(Nc2ccc3c(c2)OC[C@H]2CN(S(=O)(=O)C4CC4)CCN32)nc1NC1CC1 [Amorphous form] | solubility in water (solubility class) [3]: fell within the same solubility class; average weight gain ([1]; listed as amorphous sample): 3.0%; hygroscopicity (classification) ([1]; listed as amorphous sample): hygroscopicity; Appearance [2, 11]: Pale yellow solid; Crystal form [2, 11]: Unchanged; Maximum single impurity (%) [2, 11]: 1.63%; Total impurity (%) [2, 11]: 8.00%; Appearance ([2]; day 0): Pale yellow solid; Maximum single impurity (%) ([2]; day 0): 1.58%; Total impurity (%) ([2]; day 0): 6.91%; stability (summary in words) [2]: underwent degradation under conditions of high temperature, high humidity, and light exposure
